For this experiment, the target named is GST tagged IRAK4 (Homo sapiens (Human), UniProt Q9NWZ3). Briefly: IRAK4 Kinase Assay (IMAP fluorescence polarization). As to conditions: read-out: IRAK4 IC50; 0.5 nM GST tagged IRAK4, 100 μM ATP, 30 minutes at 25° C.; tested form: TFA. The procedure:
The kinase activity of IRAK4 is determined by its ability to catalyze the phosphorylation of a fluorescent polypeptide substrate. The extent of phosphorylation is measured using the IMAP technology (Molecular Devices) where the phosphorylated fluorescent substrate binds to the large M(III)-based nanoparticles which reduces the rotational speed of the substrate and thus increases its fluorescent polarization (FP).
20 μL reaction mixture contains 10 mM TriHCl, pH 7.2, 0.5 nM GST tagged IRAK4 (SignalChem), 100 nM fluorescent peptide substrate (RP7030, Molecular Devices), 100 μM ATP, 1 mM DDT, 1 mM MgCl2, and 0.01% Tween 20. The reaction is initiated by the addition of ATP. After incubation for 30 minutes at 25° C., 60 μL of Progressive IMAP Reagent (Molecular Devices) is added to stop the reaction. Change in RP7030's FP is determined by a FP reader (Analyst HT, LJL BioSystems).

By UniProt entry, the sequences of proteins in these tests, tags left out.
UniProt Q9NWZ3, whole entry: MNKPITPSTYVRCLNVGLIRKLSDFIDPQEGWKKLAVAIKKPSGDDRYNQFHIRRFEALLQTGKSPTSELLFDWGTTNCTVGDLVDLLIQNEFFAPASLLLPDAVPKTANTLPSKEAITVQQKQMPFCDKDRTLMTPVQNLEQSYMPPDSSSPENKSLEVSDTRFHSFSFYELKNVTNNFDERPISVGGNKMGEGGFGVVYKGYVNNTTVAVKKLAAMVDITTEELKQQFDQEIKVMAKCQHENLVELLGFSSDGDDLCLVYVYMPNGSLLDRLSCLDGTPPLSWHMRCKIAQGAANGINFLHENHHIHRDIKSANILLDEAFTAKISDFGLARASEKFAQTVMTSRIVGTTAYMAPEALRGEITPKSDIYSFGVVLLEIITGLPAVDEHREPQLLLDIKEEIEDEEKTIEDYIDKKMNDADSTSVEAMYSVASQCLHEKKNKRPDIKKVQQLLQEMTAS

The values below come from patent publication US10040802B2, “Thienopyrazine inhibitors of IRAK4 activity” (MERCK SHARP & DOHME CORP., priority 2015, dated 2018).

The term IC50 denotes the concentration that inhibits the measured activity by half. Take `Cn1ncc(NC(=O)c2csc3ncc(N[C@@H]4CCCC[C@@H]4N)nc23)c1C(F)(F)F`: the 50% inhibitory concentration (IC50) stood at 16 nM.
